From PubChem BioAssay (NCI)
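Exposure lasted 48 hours, with cells grown in 96-well plates and compounds tested at five concentrations. GI50 = concentration required for 50% inhibition of growth. At the TGI there is no net growth.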

Legend:
Test in all cases: NCI tumour cell line growth inhibition, 48 h
[1] = test system: NCI-H226 lung
[2] = test system: ACHN renal
[3] = test system: NCI-H460 lung
[4] = test system: RXF 393 renal
[5] = test system: OVCAR-8 ovarian
[6] = test system: EKVX NSCLC
[7] = test system: OVCAR-5 ovarian
[8] = test system: HCC-2998 colon
[9] = test system: MDA-MB-231 breast
[10] = test system: CCRF-CEM leukemia
[11] = test system: U251 CNS
[12] = test system: NCI-H522 lung
[13] = test system: SF-268 CNS
[14] = test system: HCT-15 colon
[15] = test system: SF-539 CNS
[16] = test system: SK-MEL-28 melanoma
[17] = test system: OVCAR-4 ovarian
[18] = test system: A498 renal
[19] = test system: SN12C renal
[20] = test system: T-47D breast
[21] = test system: UO-31 renal
[22] = test system: NCI-H322M lung
[23] = test system: NCI/ADR-RES ovarian
[24] = test system: SF-295 CNS
[25] = test system: SNB-19 CNS
[26] = test system: MDA-MB-435
[27] = test system: RPMI-8226 leukemia
[28] = test system: SW-620 colon
[29] = test system: UACC-257 melanoma
[30] = test system: CAKI-1 renal
[31] = test system: COLO 205 colon
[32] = test system: SK-MEL-5 melanoma
[33] = test system: 786-0 renal
[34] = test system: A549 NSCLC
[35] = test system: IGROV1 ovarian
[36] = test system: PC-3 prostate
[37] = test system: HCT-116 colon
[38] = test system: LOX IMVI melanoma
[39] = test system: SK-MEL-2 melanoma
[40] = test system: SNB-75 CNS
[41] = test system: NCI-H23 lung
[42] = test system: MALME-3M melanoma
[43] = test system: SK-OV-3 ovarian
[44] = test system: OVCAR-3 ovarian
[45] = test system: KM12 colon
[46] = test system: M14 melanoma
[47] = test system: BT-549 breast
[48] = test system: HOP-62 NSCLC
[49] = test system: TK-10 renal
[50] = test system: MCF7 breast
[51] = test system: HT29 colon
[52] = test system: DU-145 prostate
[53] = test system: MOLT-4 leukemia
[54] = test system: HOP-92 NSCLC
[55] = test system: UACC-62 melanoma
[56] = test system: HL-60(TB) leukemia
[57] = test system: K-562 leukemia
[58] = test system: MDA-N
[59] = test system: HS 578T breast

Work on `COP(C)(=O)OCC1C(C=C(C)C)C1(C)COP(C)(=O)OC` (stereo unspecified) yielded a GI50 [1] of over 100 µM, a TGI [1] of over 100 µM and a GI50 [2] of over 100 µM. The TGI [2] was over 100 µM, the GI50 [3] was over 100 µM and the TGI [3] was over 100 µM. The GI50 [4] was over 100 µM, the TGI [4] was over 100 µM and the GI50 [5] was over 100 µM. The TGI [5] was over 100 µM, the GI50 [6] was over 100 µM and the TGI [6] was over 100 µM. The GI50 [7] was over 100 µM, the TGI [7] was over 100 µM and the GI50 [8] was over 100 µM. The TGI [8] was over 100 µM, the GI50 [9] was over 100 µM and the TGI [9] was over 100 µM. For the same compound, the GI50 [10] was over 100 µM, the TGI [10] was over 100 µM and the GI50 [11] was over 100 µM. The TGI [11] was over 100 µM, the GI50 [12] was over 100 µM and the TGI [12] was over 100 µM. For the same compound, the GI50 [13] was over 100 µM, the TGI [13] was over 100 µM and the GI50 [14] was over 100 µM. The TGI [14] was over 100 µM, the GI50 [15] was over 100 µM and the TGI [15] was over 100 µM. The GI50 [16] was over 100 µM, the TGI [16] was over 100 µM and the GI50 [17] was over 100 µM. For the same compound, the TGI [17] was over 100 µM, the GI50 [18] was over 100 µM and the TGI [18] was over 100 µM. It also gave a GI50 [19] of over 100 µM, a TGI [19] of over 100 µM and a GI50 [20] of over 100 µM. It also gave a TGI [20] of over 100 µM, a GI50 [21] of over 100 µM and a TGI [21] of over 100 µM. For the same compound, the GI50 [22] was over 100 µM, the TGI [22] was over 100 µM and the GI50 [23] was over 100 µM. It also gave a TGI [23] of over 100 µM, a GI50 [24] of over 100 µM and a TGI [24] of over 100 µM. For the same compound, the GI50 [25] was over 100 µM, the TGI [25] was over 100 µM and the GI50 [26] was over 100 µM. The TGI [26] was over 100 µM, the GI50 [27] was over 100 µM and the TGI [27] was over 100 µM. It also gave a GI50 [28] of over 100 µM, a TGI [28] of over 100 µM and a GI50 [29] of over 100 µM. It also gave a TGI [29] of over 100 µM, a GI50 [30] of over 100 µM and a TGI [30] of over 100 µM. It also gave a GI50 [31] of over 100 µM, a TGI [31] of over 100 µM and a GI50 [32] of over 100 µM. The TGI [32] was over 100 µM, the GI50 [33] was over 100 µM and the TGI [33] was over 100 µM. For the same compound, the GI50 [34] was over 100 µM, the TGI [34] was over 100 µM and the GI50 [35] was over 100 µM. It also gave a TGI [35] of over 100 µM, a GI50 [36] of over 100 µM and a TGI [36] of over 100 µM. For the same compound, the GI50 [37] was over 100 µM, the TGI [37] was over 100 µM and the GI50 [38] was over 100 µM. It also gave a TGI [38] of over 100 µM, a GI50 [39] of over 100 µM and a TGI [39] of over 100 µM. For the same compound, the GI50 [40] was over 100 µM, the TGI [40] was over 100 µM and the GI50 [41] was over 100 µM. It also gave a TGI [41] of over 100 µM, a GI50 [42] of over 100 µM and a TGI [42] of over 100 µM. For the same compound, the GI50 [43] was over 100 µM, the TGI [43] was over 100 µM and the GI50 [44] was over 100 µM. The TGI [44] was over 100 µM, the GI50 [45] was over 100 µM and the TGI [45] was over 100 µM. For the same compound, the GI50 [46] was over 100 µM, the TGI [46] was over 100 µM and the GI50 [47] was over 100 µM. For the same compound, the TGI [47] was over 100 µM, the GI50 [48] was over 100 µM and the TGI [48] was over 100 µM. For the same compound, the GI50 [49] was over 100 µM, the TGI [49] was over 100 µM and the GI50 [50] was over 100 µM. The TGI [50] was over 100 µM.

`CC1=C[C@H]2O[C@@H]3[C@H](O)[C@@H](O)[C@](C)(C2(COC(=O)CCl)CC1)[C@@]31CO1` (stereo partly specified) gave a GI50 [1] of 0.0182 µM, a TGI [1] of 0.0644 µM and a TGI [2] of 3.01 µM. It also gave a GI50 [3] of 0.0109 µM, a TGI [3] of 0.0339 µM and a GI50 [4] of 0.0249 µM. It also gave a TGI [4] of 0.146 µM, a GI50 [5] of 0.0193 µM and a TGI [5] of 0.106 µM. It also gave a GI50 [51] of 0.0242 µM, a TGI [51] of 0.121 µM and a GI50 [6] of 0.0459 µM. It also gave a TGI [6] of 0.283 µM, a GI50 [7] of 0.178 µM and a TGI [7] of 0.656 µM. For the same compound, the GI50 [8] was 0.0143 µM, the TGI [8] was 0.0355 µM and the GI50 [9] was 0.0857 µM. The TGI [9] was 0.324 µM, the TGI [52] was 3.84 µM and the GI50 [10] was under 0.01 µM. The TGI [11] was 1.35 µM, the GI50 [12] was under 0.01 µM and the TGI [12] was 0.0158 µM. The GI50 [13] was 0.0406 µM, the TGI [13] was 0.179 µM and the GI50 [14] was 0.252 µM. The TGI [14] was 1.01 µM, the GI50 [15] was 0.0107 µM and the TGI [15] was 0.0167 µM. For the same compound, the GI50 [16] was 0.0138 µM, the TGI [16] was 0.0377 µM and the GI50 [17] was 0.0163 µM. It also gave a TGI [17] of 0.0644 µM, a GI50 [18] of 0.0165 µM and a TGI [18] of 0.0393 µM. For the same compound, the GI50 [19] was 0.0371 µM, the TGI [19] was 0.193 µM and the GI50 [20] was 0.0161 µM. It also gave a TGI [20] of 0.0597 µM, a GI50 [21] of 0.12 µM and a TGI [21] of 0.441 µM. It also gave a GI50 [53] of 0.0192 µM, a TGI [53] of 1.2 µM and a GI50 [22] of 0.0892 µM. The TGI [22] was 1.11 µM, the GI50 [23] was 0.058 µM and the TGI [23] was 0.505 µM. It also gave a GI50 [24] of 0.0206 µM, a TGI [24] of 0.189 µM and a GI50 [25] of 0.0133 µM. It also gave a TGI [25] of 0.0704 µM, a GI50 [26] of 0.0151 µM and a TGI [26] of 0.045 µM. It also gave a GI50 [27] of 0.0177 µM, a GI50 [28] of 0.0315 µM and a TGI [28] of 0.486 µM. The GI50 [29] was 0.0217 µM, the TGI [29] was 0.105 µM and the GI50 [30] was 0.0581 µM. It also gave a TGI [30] of 0.491 µM, a GI50 [31] of 0.0152 µM and a TGI [31] of 0.0383 µM. It also gave a GI50 [32] of 0.0124 µM, a TGI [32] of 0.0302 µM and a GI50 [33] of 0.0331 µM. For the same compound, the TGI [33] was 0.142 µM, the GI50 [34] was 0.0293 µM and the TGI [34] was 0.297 µM. For the same compound, the GI50 [54] was 0.0247 µM, the TGI [54] was 0.0832 µM and the GI50 [55] was 0.175 µM. The TGI [55] was 0.438 µM, the GI50 [35] was 0.0215 µM and the TGI [35] was 0.0944 µM. The GI50 [56] was 0.0118 µM, the TGI [56] was 0.0729 µM and the GI50 [57] was 0.0163 µM. The GI50 [36] was 0.0188 µM, the TGI [36] was 0.142 µM and the GI50 [37] was 0.0121 µM. For the same compound, the TGI [37] was 0.0253 µM, the GI50 [38] was under 0.01 µM and the TGI [38] was 0.0105 µM. The GI50 [39] was 0.0296 µM, the TGI [39] was 0.148 µM and the GI50 [58] was 0.0231 µM. The TGI [58] was 0.107 µM, the GI50 [40] was 0.0193 µM and the TGI [40] was 0.0699 µM. For the same compound, the GI50 [41] was 0.0161 µM, the TGI [41] was 0.0456 µM and the GI50 [42] was 0.0111 µM. The TGI [42] was 0.0206 µM, the GI50 [43] was 0.0921 µM and the TGI [43] was 1.19 µM. The GI50 [44] was 0.0171 µM, the TGI [44] was 0.0663 µM and the GI50 [45] was 0.0383 µM. It also gave a TGI [45] of 0.233 µM, a GI50 [59] of 0.0266 µM and a TGI [59] of 0.0646 µM. The GI50 [46] was 0.013 µM, the TGI [46] was 0.0284 µM and the GI50 [47] was 0.0181 µM. For the same compound, the TGI [47] was 0.0507 µM, the GI50 [48] was 0.092 µM and the TGI [48] was 1.91 µM. The GI50 [49] was 0.0599 µM, the TGI [49] was 0.215 µM and the GI50 [50] was under 0.01 µM.
